From PubChem BioAssay AID1509 (The Scripps Research Institute Molecular Screening Center, 2009)
The list shows a part of the results, in another mix than the full data. Activity calls are given as the source filed them. No stated cut-off is given here; in the data, active means activation above about 11%; inactive means the rest.

Amino acid sequences for entries named in this document (tags omitted).
UniProt O95977, whole entry: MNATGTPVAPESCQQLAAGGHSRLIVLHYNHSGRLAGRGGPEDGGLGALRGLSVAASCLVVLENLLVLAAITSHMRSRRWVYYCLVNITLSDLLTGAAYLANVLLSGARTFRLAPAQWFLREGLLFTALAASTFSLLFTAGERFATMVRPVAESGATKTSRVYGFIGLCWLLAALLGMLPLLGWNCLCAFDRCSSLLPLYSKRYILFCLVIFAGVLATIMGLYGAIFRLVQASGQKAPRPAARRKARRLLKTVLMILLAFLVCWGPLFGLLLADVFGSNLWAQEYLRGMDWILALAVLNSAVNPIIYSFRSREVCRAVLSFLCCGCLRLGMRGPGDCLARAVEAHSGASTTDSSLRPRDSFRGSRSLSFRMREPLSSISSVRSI

What follows are compounds tested against Sphingosine 1-phosphate receptor 4 (Homo sapiens) (UniProt O95977) (assay: S1P4 receptor agonists, primary screen, cell-based (AID 1509;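 further: 0% = DMSO vehicle and 100% = reference agonist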)). Conditions: S1P4-expressing cell line, agonist reporter assay; at 4.98 µM; hits give high values.

Row | SMILES | activation
1 | CP(=O)(Nc1ccccc1Br)Oc1ccccc1 (configuration not stated) | inactive: 0.58%
2 | COc1ccccc1OP(C)(=O)Nc1ccccc1 (configuration not stated) | inactive: 0.92%
3 | CP(=S)(Nn1cnnc1)Oc1ccccc1 (configuration not stated) | inactive: 5.04%
4 | Cc1cc(C)cc(OP(C)(=O)Nc2ccc(SC(F)(F)F)cc2)c1 (configuration not stated) | inactive: -1.16%
5 | CCc1ccc(OP(C)(=O)N2CCN(c3ccc([N+](=O)[O-])cc3)CC2)cc1 (configuration not stated) | inactive: 0.72%
6 | CP(=O)(NC(=O)Nc1ccccc1)Oc1ccccc1 (configuration not stated) | inactive: 0.71%
7 | CP(=O)(Oc1ccccc1)OC(c1ccccc1)C(F)(F)F (configuration not stated) | inactive: 0.85%
8 | Cc1cccc(C)c1OP(C)(=O)Nc1ccc(SC(F)(F)F)cc1 (configuration not stated) | inactive: 0.41%
9 | CP(=O)(Nc1ccc(SC(F)(F)F)cc1)Oc1ccc(Cl)cc1 (configuration not stated) | inactive: -2.04%
10 | CP(=O)(Nc1ccccn1)Oc1ccc(Cl)cc1 (configuration not stated) | inactive: -1.71%
11 | CCOC(=O)c1ccc(NP(C)(=O)Oc2ccc(OC)cc2)cc1 (configuration not stated) | inactive: 3.28%
12 | CCOP(C)(=S)SCC(=O)NC(C)C(=O)O (configuration not stated) | inactive: 1.34%
13 | CCN(CC)CCCOC(=O)C(O)(c1ccccc1)c1ccccc1 | inactive: 0.42%
14 | O=[N+]([O-])c1ccc2c(c1)C=Nc1ccccc1O2 | inactive: 1.1%
15 | Cc1cccc(C)c1OP(C)(N)=O (configuration not stated) | inactive: 1.17%
16 | CC(C)(C)c1ccc(OP(C)(=O)Nc2ccc(SC(F)(F)F)cc2)cc1 (configuration not stated) | inactive: -0.58%
17 | Cc1cc(C)cc(OP(C)(N)=O)c1 (configuration not stated) | inactive: -0.93%
18 | COc1ccc(OP(C)(=O)Nc2cccc(F)c2)cc1 (configuration not stated) | inactive: -1.59%
19 | COc1ccccc1OP(C)(=O)Nc1cc(Cl)ccc1C (configuration not stated) | inactive: 1.41%
20 | Cc1ccc(NP(C)(=O)Oc2ccccc2)c(C)c1 (configuration not stated) | inactive: 1.74%
21 | COc1ccccc1OP(C)(=O)Nc1ccc(C)cc1 (configuration not stated) | inactive: 1.9%

Row | SMILES | activation
22 | CCOC(=O)c1ccc(NP(C)(=O)Oc2ccccc2)cc1 (configuration not stated) | inactive: 1.68%
23 | O=C(O)c1cccc(Nc2c([N+](=O)[O-])cc([N+](=O)[O-])cc2[N+](=O)[O-])c1 | inactive: -0.58%
24 | CC1=NCCc2c1[nH]c1ccccc21.O=[N+]([O-])c1cc([N+](=O)[O-])c(O)c([N+](=O)[O-])c1 | inactive: -1.64%
25 | CCOC(=O)c1ccc(NP(C)(=O)Oc2cc(C)cc(C)c2)cc1 (configuration not stated) | inactive: -0.72%
26 | Cc1cc(C)cc(OP(C)(=O)Nc2ccc(C)cc2C)c1 (configuration not stated) | inactive: 0.46%
27 | COc1ccccc1OP(C)(=O)Nc1cccc(Br)c1 (configuration not stated) | inactive: 1.01%
28 | Cc1ccc(C)c(NP(C)(=O)Oc2ccccc2)c1 (configuration not stated) | inactive: 0.35%
29 | CP(=O)(Nc1cccc(Br)c1)Oc1ccccc1 (configuration not stated) | inactive: 0.69%
30 | Cc1cc(C)cc(OP(C)(=O)Nc2ccccn2)c1 (configuration not stated) | inactive: 1.75%
31 | O=[N+]([O-])c1cc([N+](=O)[O-])c(-n2nnc3ccccc32)c([N+](=O)[O-])c1 | inactive: 1.39%
32 | Cc1nc2ccc3ccccc3c2s1.O=[N+]([O-])c1cc([N+](=O)[O-])c(O)c([N+](=O)[O-])c1 | inactive: -0.7%
33 | CCOC(=O)C(CC)C1=NC(C)(C)Cc2ccccc21.O=[N+]([O-])c1cc([N+](=O)[O-])c(O)c([N+](=O)[O-])c1 (configuration not stated) | inactive: 1.4%
34 | O=[N+]([O-])c1cc([N+](=O)[O-])c(Nc2nnnn2CCO)c([N+](=O)[O-])c1 | inactive: -0.49%
35 | CP(=O)(Nc1ccc(SC(F)(F)F)cc1)Oc1ccccc1 (configuration not stated) | inactive: -0.64%
36 | CCCOc1ccc(NP(C)(=O)Oc2ccc(Cl)cc2)cc1 (configuration not stated) | inactive: -3.54%
37 | COc1ccccc1OP(C)(=O)Nc1c(C)cccc1C (configuration not stated) | inactive: -1.48%
38 | CN1CCCCC1COC(=O)C1(O)c2ccccc2CCc2ccccc21 (configuration not stated) | inactive: -2.73%
39 | CN(C)CCOC(=O)C(O)(c1ccccc1)C1CCCCC1 (configuration not stated) | inactive: -1.54%
40 | COc1ccc(NP(C)(=O)Oc2ccccc2OC)cc1 (configuration not stated) | inactive: 1.23%
41 | COc1ccc(OP(C)(=O)Nc2cccc(Br)c2)cc1 (configuration not stated) | inactive: 2.71%
42 | O=[N+]([O-])c1ccc(OP2(=O)COCCO2)cc1 (configuration not stated) | inactive: -0.25%

Row | SMILES | activation
43 | Cc1cc(-c2cccc3ccccc23)c(C)cn1.O=[N+]([O-])c1cc([N+](=O)[O-])c(O)c([N+](=O)[O-])c1 | inactive: -2.69%
44 | O=[N+]([O-])c1cc([N+](=O)[O-])c(NCC2CCS(=O)(=O)C2)c([N+](=O)[O-])c1 (configuration not stated) | inactive: -1.12%
45 | CCOP(C)(=S)SCC(=O)NC(C)(CC)C(=O)O (configuration not stated) | inactive: 2.97%
46 | CP(=O)(Nc1ccc(SC(F)(F)F)cc1)Oc1ccc(F)cc1 (configuration not stated) | inactive: -0.32%
47 | Cc1ccccc1NP(C)(=O)Nc1ccccc1C | inactive: 1.45%
48 | CP(=O)(Nc1ccc2c(c1)OCCO2)Oc1ccccc1 (configuration not stated) | inactive: 0.56%
49 | CP(=O)(Nc1ccccc1F)Oc1ccccc1 (configuration not stated) | inactive: -0.45%
50 | CC(C)c1ccc(OP(C)(=O)Nc2ccc(SC(F)(F)F)cc2)cc1 (configuration not stated) | inactive: -1.72%
51 | O=C(OC1CN2CCC1CC2)c1ccc([N+](=O)[O-])cc1 (configuration not stated) | inactive: 2.01%
52 | O=C(OCCN1CCN(CCOCc2ccccc2)CC1)C(O)(c1ccccc1)c1ccccc1 | inactive: 2.32%
53 | CCOC(=O)c1ccc(NP(C)(=O)Oc2ccc(F)cc2)cc1 (configuration not stated) | inactive: -0.38%
54 | COc1ccc(OP(C)(=O)Nc2ccc(SC(F)(F)F)cc2)cc1 (configuration not stated) | inactive: 1.27%
55 | CP(=O)(Nc1ccccc1)Oc1ccc(F)cc1 (configuration not stated) | inactive: 0.18%
56 | CCCCCOc1ccc(NP(C)(=O)Oc2ccc(Cl)cc2Cl)cc1 (configuration not stated) | inactive: -1.31%
57 | CCN(CC)CCCOC(=O)C(O)(c1ccccc1)C1CCCCC1 (configuration not stated) | inactive: 1.39%
58 | COc1ccccc1OP(C)(=O)Nc1ccc(C)c(C)c1 (configuration not stated) | inactive: 0.78%
59 | COc1ccc(OP(C)(=O)Nc2ccccc2Br)cc1 (configuration not stated) | inactive: 2.21%
60 | Cc1cc(C)cc(OP(C)(=O)Nc2cccc(C(F)(F)F)c2)c1 (configuration not stated) | inactive: 0.14%
61 | CP(=O)(OCCOc1ccccc1)OCCOc1ccccc1 | inactive: -0.72%
62 | CP(=O)(Nc1ccc(Cl)cc1Cl)Oc1ccccc1 (configuration not stated) | inactive: -0.67%
